According to paper PMC11370232, “Repurposing of a library for high-content screening of inhibitors against Echinococcus granulosus” (Parasites & Vectors, 2024):
Counter-ions that a name gives are not always drawn. Like-named read-outs stand apart in the source and are kept apart here.

Assays:
[1] = system: E. granulosus PSCs
[2] = system: E. granulosus PSCs; assay: microbe, parasite or virus in culture; settings: Echinococcus granulosus
[3] = primary screen, 50 μM, PSCs, 3-day incubation, PI staining (death rate of PSCs)
[4] = second-stage dose-response, 2 μM, PSCs
[5] = second-stage dose-response, 10 μM, PSCs
[6] = second-stage dose-response, 50 μM, PSCs
[7] = second-stage dose-response, 0.5 μM, PSCs
[8] = read-out: Anti-echinococcus activity % of death

SMILES	Anti-echinicoccus activity, Initiate hits 50uM [1, 3]	Anti-echinicoccus activity, Dose confirmaiton 2uM [1, 4]	Anti-echinicoccus activity, Dose confirmaiton 10uM [1, 5]	Anti-echinicoccus activity, Dose confirmaiton 50uM [1, 6]	Anti-echinicoccus activity, Dose confirmaiton 0.5uM [1, 7]	other results
O=C(Nc1ncc(SCCN2CCCC2)s1)[C@]1(c2ccc(S(=O)(=O)C3CC3)cc2)C[C@H]1C1CCCCC1 [LY2608204]	–	–	–	–	–	Anti-echinicoccus activity, Dose confirmaiton 0.5uM [1]: 0; Anti-echinicoccus activity, Dose confirmaiton 2uM [1]: 0; Anti-echinicoccus activity, Dose confirmaiton 10uM [1]: 0; Anti-echinicoccus activity, Dose confirmaiton 50uM [1]: 100; Anti-echinicoccus activity, Initiate hits 50uM [1]: 100
O=C(O)C(O)C(O)C(=O)O.Oc1ccc2c(c1)CC[C@H](c1ccccc1)[C@@H]2c1ccc(OCCN2CCCC2)cc1 [Lasofoxifene tartrate]	94	0	100	100	–	–
CCC[C@H](NC(=O)/C(C#N)=C/c1cccc(Br)n1)c1ccccc1 [Degrasyn (WP1130), Degrasyn]	98	0	100	100	0	survival rate of PSCs ([1]; 50 μM, 3 days, 96-well): 0%; mortality of echinococcal PSCs ([1]; 50 μM, primary HCS format, 3 days): complete mortality
CC#CC(=O)Nc1ccc2ncnc(Nc3cccc(Br)c3)c2c1 [CL-387785 (EKI-785), CL-387785]	95	0	0	100	0	–
CC(C)(C)C(=O)Nc1ccc2c(c1)C(=O)C(=O)c1ccccc1-2 [SF1670]	100	0	100	100	–	–
CC(C)(Cc1ccc2ccccc2c1)NC[C@@H](O)COc1cccc(Cl)c1C#N [NPS-2143]	–	–	–	–	–	MIC90 (minimum inhibitory concentration causing a 90% death of PSCs) ([1]; third round, eight concentrations 0.5-64 μM, day 3 post-treatment): 30 µM
CC(=O)OC[C@H]1O[C@@H]([S-])[C@H](OC(C)=O)[C@@H](OC(C)=O)[C@@H]1OC(C)=O.CCP(CC)CC.[Au+] [Auranofin]	100	0	100	100	0	MIC90 (minimum inhibitory concentration causing a 90% death of PSCs) [1]: 9.4 µM
CC(=O)[C@]1(O)Cc2c(O)c3c(c(O)c2[C@@H](O[C@H]2C[C@H](N)[C@H](O)[C@H](C)O2)C1)C(=O)c1ccccc1C3=O.Cl [Idarubicin HCl, (7S,9S)-9-acetyl-7-((2R,4S,5S,6S)-4-amino-5-hydroxy-6-methyl-tetrahydro-2H-pyran-2-yloxy)-6,9,11-trihydroxy-7,8,9,10-tetrahydrotetracene-5,12-dione hydrochloride]	100	100	100	100	100	–
CCn1c2ccccc2c2cc(Nc3ccnc(NCCCN4CCOCC4)n3)ccc21 [EHop-016]	100	0	0	100	0	–
O=[N+]([O-])c1ccc2c(c1)S(=O)(=O)C=C2 [Stattic]	100	0	100	100	–	–
NS(=O)(=O)c1nn2cc(-c3ccccc3)nc2s1 [AEG 3482]	–	–	–	–	–	Anti-echinicoccus activity, Dose confirmaiton 0.5uM [1]: 0; Anti-echinicoccus activity, Dose confirmaiton 2uM [1]: 0; Anti-echinicoccus activity, Dose confirmaiton 10uM [1]: 0; Anti-echinicoccus activity, Dose confirmaiton 50uM [1]: 100; Anti-echinicoccus activity, Initiate hits 50uM [1]: 100
Cc1ccc(S(=O)(=O)c2ccc([N+](=O)[O-])o2)cc1 [NSC697923]	–	–	–	–	–	Anti-echinicoccus activity, Dose confirmaiton 0.5uM [1]: 0; Anti-echinicoccus activity, Dose confirmaiton 2uM [1]: 0; Anti-echinicoccus activity, Dose confirmaiton 10uM [1]: 100; Anti-echinicoccus activity, Dose confirmaiton 50uM [1]: 100; Anti-echinicoccus activity, Initiate hits 50uM [1]: 100
C=CC(=O)Nc1cccc(Oc2nc(Nc3ccc(N4CCN(C)CC4)cc3)ncc2Cl)c1 [WZ3146]	100	0	0	100	–	–
CCOC(=O)c1c(CSc2ccccc2)n(C)c2cc(Br)c(O)c(CN(C)C)c12.Cl [Arbidol hydrochloride]	100	0	0	100	0	–
c1ccc(CNc2nc(NCc3ccccc3)c3ccccc3n2)cc1 [DBeQ]	100	0	100	100	0	–
CC(C)[C@H]1c2ccc(F)cc2CC[C@@]1(CCN(C)CCCc1nc2ccccc2[nH]1)OC(=O)C1CC1 [NNC 55-0396]	–	–	–	–	–	Anti-echinicoccus activity, Dose confirmaiton 0.5uM [1]: 0; Anti-echinicoccus activity, Dose confirmaiton 2uM [1]: 0; Anti-echinicoccus activity, Dose confirmaiton 10uM [1]: 0; Anti-echinicoccus activity, Dose confirmaiton 50uM [1]: 100; Anti-echinicoccus activity, Initiate hits 50uM [1]: 100
O=c1[nH]c2ccc(Cl)cc2c(N[C@@H]2CN3CCC2CC3)c1-c1nc2ccccc2[nH]1 [CHIR-124]	100	0	20	100	0	–
COc1cccc2c(NCc3ccccc3)nc(-n3c(N)nc4ccccc43)nc12 [ML240]	–	–	–	–	–	Anti-echinicoccus activity, Dose confirmaiton 0.5uM [1]: 0; Anti-echinicoccus activity, Dose confirmaiton 2uM [1]: 0; Anti-echinicoccus activity, Dose confirmaiton 10uM [1]: 100; Anti-echinicoccus activity, Dose confirmaiton 50uM [1]: 100; Anti-echinicoccus activity, Initiate hits 50uM [1]: 100
Cc1ccc(S(=O)(=O)/C=C/C#N)cc1 [Bay 11-7082]	100	0	100	100	0	–
COc1cc(/C=C/C(=O)N2CCC=CC2=O)cc(OC)c1OC [Piperlongumine]	–	–	–	–	–	Anti-echinicoccus activity, Dose confirmaiton 0.5uM [1]: 0; Anti-echinicoccus activity, Dose confirmaiton 2uM [1]: 0; Anti-echinicoccus activity, Dose confirmaiton 10uM [1]: 0; Anti-echinicoccus activity, Dose confirmaiton 50uM [1]: 100; Anti-echinicoccus activity, Initiate hits 50uM [1]: 100
NS(=O)(=O)C#Cc1ccccc1 [Pifithrin-μ]	–	–	–	–	–	Anti-echinicoccus activity, Dose confirmaiton 0.5uM [1]: 0; Anti-echinicoccus activity, Dose confirmaiton 2uM [1]: 0; Anti-echinicoccus activity, Dose confirmaiton 10uM [1]: 100; Anti-echinicoccus activity, Dose confirmaiton 50uM [1]: 100; Anti-echinicoccus activity, Initiate hits 50uM [1]: 100
CC(C)(C)c1ccc(S(=O)(=O)/C=C/C#N)cc1 [Bay 11-7085]	100	0	0	100	0	–
CC(C)(C)c1cc(C=C(C#N)C#N)cc(C(C)(C)C)c1O [Tyrphostin 9]	85	–	100	100	–	–
CNC1CC(c2ccc(Cl)c(Cl)c2)c2ccccc21 (stereo not drawn) [INDATRALINE]	–	–	–	–	–	mortality at 0.5 µM [2, 8]: 0%; mortality at 2 µM [2, 8]: 0%; mortality at 10 µM [2, 8]: 0%; mortality at 50 µM [2, 8]: 100%
CN[C@@H]1C[C@@H](c2ccc(Cl)c(Cl)c2)c2ccccc21 [Indatraline hydrochloride, reference compound]	–	–	–	–	–	killing at 0.5 µM ([2]; 72 h, read-out: Anti-echinicoccus activity, Dose confirmaiton 0.5uM): 0%; killing at 2 µM ([2]; 72 h, read-out: Anti-echinicoccus activity, Dose confirmaiton 2uM): 0%; killing at 10 µM ([2]; 72 h, read-out: Anti-echinicoccus activity, Dose confirmaiton 10uM): 0%; killing at 50 µM ([2]; 72 h, read-out: Anti-echinicoccus activity, Dose confirmaiton 50uM): 100%; killing at 50 µM ([2]; 72 h, read-out: Anti-echinicoccus activity, Initiate hits 50uM): 90%
